We go through nine molecules from PubChem BioAssay AID759 (NMMLSC, 2007).

Amino acid sequences for entries named in this document (tags omitted).
UniProt P01112, whole entry: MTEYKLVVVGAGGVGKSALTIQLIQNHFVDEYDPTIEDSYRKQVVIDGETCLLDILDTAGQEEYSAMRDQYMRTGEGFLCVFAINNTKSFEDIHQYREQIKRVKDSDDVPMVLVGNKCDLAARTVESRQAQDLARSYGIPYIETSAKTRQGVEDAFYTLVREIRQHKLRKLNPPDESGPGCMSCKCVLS

The entries are a selection whose mix differs from that of the whole data set. Some results for these compounds are left out of this collection, so the calls shown say nothing about other tests. Calls of active or inactive are those of the source.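 Rule for the calls: active = GTP binding activity at least 20% away from the 100% baseline, either lowered as inhibitor or raised as activator; inconclusive = flagged as likely green fluorescent, judged across all proteins in the well; inactive = the rest.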

For this test, the target named is GTPase HRas (Homo sapiens) (UniProt P01112). As to the kind of experiment: modulators of GTP binding to HRas wildtype, primary screen, biochemical, bead-based flow cytometry, multiplex (AID 759).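 Note: 0% = unlabeled GTP competition control and 100% = no-compound control.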 Particulars: GST-Ras wt beads, Bodipy-FL-GTP binding, at 10 µM, actives lie on both sides.
For `COc1cccc(C(=O)NCC2(N3CCCCC3)CCCCC2)c1`, the GTP binding activity was inactive: 94%. On to `CN(C)c1cccc(C(=O)NCC2(N(C)C)CCCCC2)c1`, for which the GTP binding activity is inactive: 102%. Consider `O=C(OC1CN2CCC1CC2)C(CO)(c1ccccc1)c1ccccc1` (centres undefined), for which the GTP binding activity is inactive: 97%. In the case of `CC(C)N1C(=O)CC2(CCN(CCOC(=O)C(O)(c3ccccc3)c3ccccc3)CC2)C1=O`, the GTP binding activity was inactive: 106%. Turning to `O=C(NCC1(N2CCCCC2)CCCCC1)c1cc([N+](=O)[O-])ccc1Cl`, the GTP binding activity was inactive: 92%. As for `CCN1CCCC(OC(=O)C2(O)c3ccccc3C=Cc3ccccc32)C1` (centres undefined), the figure is inactive: 99%; as for `C=CCN1CCN(CCOC(=O)C(O)(c2ccccc2)c2ccccc2)CC1`, inactive: 97%; as for `CN(C)C1CCCC1OC(=O)C(O)(c1ccccc1)c1ccccc1` (centres undefined), inactive: 99%. Take `Cc1ccccc1C(=O)NCC1(N2CCCCC2)CCCCC1`: the GTP binding activity is inactive: 101%.
